Only some compounds are listed: those with a hit (about 1.3% of all), similar ones and a draw of the others.
UUG fidelity – yeast start codon fidelity modulation; activity score, % at 18.7 µM; actives 0.13% (n = 350,000); S. cerevisiae UUG-firefly luciferase reporter, luminescence/redox ratio; AID 602363;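 active means replicate mean at a twofold rise or more, about +100% in these data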;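 further: firefly luciferase made from a UUG start codon reports start codon fidelity; reporter light over untreated wells divided by growth signal over untreated wells; some hits fall short of that in this replicate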
ARNT-TACC3 inh – disruptors of human ARNT/TACC3 interaction. Q9Y6A5. AlphaScreen His-ARNT PAS-B/GST-TACC3 binding, luminescence; TACC3 fragment carries E629A point mutation. inhibition, % at 9.99 µM. 0.66% of 390,000 active;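 active = mean inhibition of replicates at least 50% and at least half of replicates each reaching 50%; inconclusive = half or more replicates reach 50% but mean below 50%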;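 note: 0% = complete ARNT plus TACC3 wells and 100% = ARNT alone without TACC3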
ERAP1 inh – ERAP1 (human) enzyme inhibition. Q9NZ08. recombinant ERAP1, Leu-AMC fluorescence, 60 min. inhibition, % at 10.7 µM. 0.15% of 340,000 active. AID 652197;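 active = mean replicate inhibition of at least 30%, or all replicates individually reaching that 30% level; inactive = mean below 30% and not every replicate reaching it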;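 note: 0% = neutral control wells and 100% = L-leucinethiol positive control wells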
E-selectin induc – E-selectin induction on HUVECs; P16581; HUVEC E-selectin immunofluorescence imaging; normalized: neutral wells 0, TNF-alpha wells 100; activation, % at 7.58 µM; 0.37% of 260,000 active; AID 686992;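 active = mean E-selectin-positive cell signal at least 10% of the positive control, reached in at least 60% of replicates, without over 20% cell loss; inconclusive = no rule given, readout overlaps actives, possibly toxicity-flagged; inactive = the rest, including those meeting only one limit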
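assay system = HUVEC, human umbilical vein endothelial cells | input = 3,000 HUVEC seeded per well | medium = EGM-2 growth medium on 0.1% gelatin-coated wells | dosing = one compound dose added by pin transfer | signal = immunofluorescence imaging | read-out basis = % PE-positive cells | control set = TNF-alpha, DMSO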
MLL AF4-AF9 inh – blocks AF4 peptide binding to human AF9. AlphaScreen, biotin-AF4 peptide binding to FLAG-AF9. 0.47% of 350,000 active. P42568. AID 651704. inhibition, % at 10 µM;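 active = every replicate reaching a set inhibition limit, whatever the replicate mean, cut at about 25% in these data; inconclusive = mean inhibition reaches that limit but some replicates miss it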;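 note: 0% = plate neutral control median and 100% = total signal loss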
S100A4 inh HTS – inhibitors of human S100A4 binding to myosin IIA peptide; P26447; S100A4/TAMRA-MyoIIA peptide fluorescence polarization; inhibition, % at 10.7 µM; 0.14% of 360,000 active;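 active = mean inhibition of at least 70% across replicates, with every replicate also reaching that level; inconclusive = mean inhibition reaches 70% but some replicates fall short; inactive = mean inhibition below 70%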
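Compound dosing: one dose per compound; test system: human S100A4 monomer with TAMRA-labelled myosin IIA peptide; probe or stimulus: TAMRA-labelled myosin IIA heavy-chain peptide probe, 5 nM; medium: HEPES buffer with Ca2+, pH 7.2; schedule: 5 min incubation before reading; benchmarks: neutral control DMSO, positive control TFP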
* = called active by the depositor; ? = inconclusive; . = no result.

Each structure is followed by: UUG fidelity, ARNT-TACC3 inh, ERAP1 inh, E-selectin induc, MLL AF4-AF9 inh, S100A4 inh HTS
[1] CCC(=O)Nc1ccc2c(c1)C(=O)N(C)C[C@H](OC)[C@H](C)CN(CC1CC1)[C@H](C)CO2
 : -10, -9, -1, 0, -1, -8
[2] Cc1noc(C)c1NC(=O)N(C)C[C@@H]1Oc2c(NC(=O)c3cnccn3)cccc2C(=O)N([C@H](C)CO)C[C@@H]1C
 : 15, 2, 3, 0, ?, -2
[3] C=CCn1nc([N+](=O)[O-])nc1Sc1cccc2cccnc12
 : ., 74*, ., ., ., .
[4] O=[N+]([O-])c1ccc(Sc2cccc3cccnc23)cc1
 : -39, 16, 11, ., -39, 4
[5] Cc1cccc(N2CCN(C(=O)C3(S(=O)(=O)c4ccc(Cl)cc4)CC3)CC2)c1C
 : ., 50*, ., 0, -1, -3
[6] Cc1ccc(Cl)cc1N1CCN(C(=O)C2(S(=O)(=O)c3ccc(Cl)cc3)CC2)CC1
 : -13, -7, ., ., ., .
[7] CCCNC(=O)C[C@H]1CC[C@@H]2[C@H](COC[C@H](O)CN2C(=O)c2ccc(F)cc2)O1
 : 5, -13, 0, 0, 0, -10
[8] CC(=O)N1CC[C@@H]2[C@H]1c1cc(-c3ccccc3)ccc1N(C)[C@H]2CO
 : 3, -4, ., 1, ., .
[9] CC(C)C(OC(=O)c1nsc(Cl)c1Cl)C(=O)NCc1ccccc1 (stereo not drawn)
 : -26, -8, 0, 32*, 0, 9
[10] COc1ccc2c3c([nH]c2c1)[C@@H](CO)N(C(=O)c1ccccn1)CC31CN(S(C)(=O)=O)C1
 : ., ., 0, 1, 8, 7

More compounds.
Each structure is followed by: UUG fidelity, ARNT-TACC3 inh, ERAP1 inh, E-selectin induc, MLL AF4-AF9 inh, S100A4 inh HTS
[11] CC1CC(OCC(O)CN2CCOCC2)CC(C)(C)C1 (stereo not drawn)
 : -43, ., -1, 1, 11, 1
[12] CC1CC(OCC(O)C[N+]2(C)CCOCC2)CC(C)(C)C1 (stereo not drawn)
 : ., -17, 109*, 0, -6, 15
[13] COc1ccc(C2CC(c3cccs3)=NN2C(=O)c2ccccc2)cc1OC (stereo not drawn)
 : 7, 2, 2, ., 14, 1
[14] COc1ccc(C2CC(c3ccccc3O)=NN2C(=O)c2ccccc2)cc1OC (stereo not drawn)
 : -9, -5, -3, 0, 41*, 0
[15] O=[N+]([O-])c1ccc2c(c1)CO[C@@]21O[C@H](CCO)C[C@H](O)[C@H]1O
 : 13, ., ., 65*, -2, 5
[16] CC(C)C#Cc1ccc([C@@H]2[C@H](C#N)N(C(=O)C3CC3)[C@H]2CO)cc1
 : 4, -16, 4, 0, 1, 13
[17] Cc1ccc(S(=O)(=O)NC2=C(N3CCN(Cc4ccccc4)CC3)C(=O)c3ccccc3C2=O)cc1
 : 13, ., 3, 0, 35*, 2
[18] CC(=O)Nc1ccc(S(=O)(=O)NC2=C(N3CCN(c4ccc(F)cc4)CC3)C(=O)c3ccccc3C2=O)cc1
 : -17, 27, -1, -1, 45*, -6
[19] CCOC(=O)N1CCN(C2=C(NS(=O)(=O)c3ccc(C)cc3)C(=O)c3ccccc3C2=O)CC1
 : -3, 17, 2, ., 1, -6
[20] Cc1ccc(S(=O)(=O)NC2=C(N3CCN(c4ccccc4F)CC3)C(=O)c3ccccc3C2=O)cc1
 : -12, 14, 3, 0, 35*, -2

An excerpt of these results, screen by screen.
(12) CC1CC(OCC(O)C[N+]2(C)CCOCC2)CC(C)(C)C1 (stereo not drawn)
(13) COc1ccc(C2CC(c3cccs3)=NN2C(=O)c2ccccc2)cc1OC (stereo not drawn)
(14) COc1ccc(C2CC(c3ccccc3O)=NN2C(=O)c2ccccc2)cc1OC (stereo not drawn)
(15) O=[N+]([O-])c1ccc2c(c1)CO[C@@]21O[C@H](CCO)C[C@H](O)[C@H]1O
(16) CC(C)C#Cc1ccc([C@@H]2[C@H](C#N)N(C(=O)C3CC3)[C@H]2CO)cc1
screen / no. | 12 | 13 | 14 | 15 | 16
UUG fidelity | . | 7 | -9 | 13 | 4
ARNT-TACC3 inh | -17 | 2 | -5 | . | -16
ERAP1 inh | 109* | 2 | -3 | . | 4
E-selectin induc | 0 | . | 0 | 65* | 0
MLL AF4-AF9 inh | -6 | 14 | 41* | -2 | 1
S100A4 inh HTS | 15 | 1 | 0 | 5 | 13

(list continues)
Each structure is followed by: UUG fidelity, ARNT-TACC3 inh, ERAP1 inh, E-selectin induc, MLL AF4-AF9 inh, S100A4 inh HTS
[21] COC(=O)C1CCN(C2=C(NS(=O)(=O)c3ccc(Cl)cc3)C(=O)c3ccccc3C2=O)CC1
 : -13, 27, -3, 0, 39*, 4
[22] O=C(C[C@@H]1CC[C@@H]2[C@H](COC[C@H](O)CN2Cc2ccccc2)O1)NCCc1ccccc1
 : ., -9, 0, 0, -1, -5
[23] COc1ccccc1-c1ccc2c(c1)O[C@H](CN(C)C(=O)c1cccnc1)[C@H](C)CN([C@H](C)CO)S2(=O)=O
 : ., ., 2, 0, 0, 9
[24] Cc1ccc(NC2=C(N3CCOCC3)C(=O)c3ccccc3C2=O)cc1
 : -40, 62*, ., ., ., .
[25] CC(=O)c1ccc(NC2=C(N3CCOCC3)C(=O)c3ccccc3C2=O)cc1
 : -8, 24, ., ., ., .
[26] O=C(CN(Cc1ccccc1Cl)S(=O)(=O)c1ccc(Cl)cc1)N/N=C/c1ccc(C(=O)O)cc1
 : -11, 51*, -9, ., 1, -13
[27] O=C(Nc1ccccc1F)N1CC(=O)N2[C@H](C1)[C@@H](c1ccc(C#CC3CCCC3)cc1)[C@@H]2CO
 : ., ., ., 0, 7, .
[28] Cc1cc2ccc3ccccc3c2cc1CN(C)C
 : -1, -4, -3, ., ., -27
[29] CN(C)Cc1cc2ccccc2c2c1COC2
 : 58, 2, 1, 5, 32*, -6
[30] O=C(COC(=O)/C=C/c1cccc([N+](=O)[O-])c1)Nc1cccnc1Cl
 : ., 0, 2, 124*, 0, 2

The list goes on:
Each structure is followed by: UUG fidelity, ARNT-TACC3 inh, ERAP1 inh, E-selectin induc, MLL AF4-AF9 inh, S100A4 inh HTS
[31] O=C(Cc1cccnc1)N1[C@H](CO)[C@H](c2ccccc2)[C@@H]1CNCC1CCC1
 : -2, -1, 5, 0, 2, 3
[32] C[C@H](CO)N1C[C@H](C)[C@@H](CN(C)Cc2ccc(C(=O)Nc3ccccc3N)cc2)Oc2ccc(N(C)C)cc2CC1=O
 : -5, 45*, 1, 0, 16, 4
[33] C[C@H](CO)N1C[C@H](C)[C@H](CN(C)Cc2ccc(C(=O)Nc3ccccc3N)cc2)Oc2ccc(NS(=O)(=O)c3cccs3)cc2CC1=O
 : -3, -11, 1, 59*, 7, -41
[34] C[C@@H]1CN([C@H](C)CO)C(=O)Cc2cc(NS(=O)(=O)c3cccs3)ccc2O[C@H]1CN(C)Cc1ccc(C(=O)Nc2ccccc2N)cc1
 : ., ., 0, -2, -3, -8
[35] NC1=C(Br)C(=O)c2ncccc2C1=O
 : ., 64*, 10, 0, -2, -6
[36] O=C1c2cccnc2C(=O)N1CO
 : -22, 11, ., ., ., .
[37] CN(C)c1ccc(/C=N/NC(=O)c2ccc3nc[nH]c3c2)cc1
 : ., -2, 7, 1, 3, 3
[38] CSc1ccc(/C=N/NC(=O)c2ccc3nc[nH]c3c2)cc1
 : -21, ., 0, 40*, 0, 4
[39] C[C@@H]1CN([C@H](C)CO)C(=O)c2cc(NC(=O)Cc3ccccc3)ccc2O[C@@H](C)CCCCO[C@@H]1CN(C)C(=O)Cc1ccccc1
 : 3, -5, -3, 0, 1, -37
[40] CC1=CC(C)(C)n2c(O)c(N=N)c3cc(C)cc1c32
 : 13, 13, 0, -1, 26*, -18

Other results:
Each structure is followed by: UUG fidelity, ARNT-TACC3 inh, ERAP1 inh, E-selectin induc, MLL AF4-AF9 inh, S100A4 inh HTS
[41] CC1=CC(C)(C)n2c(O)c(N=N)c3c(C)c(C)cc1c32
 : ., 9, -1, ., 15, 1
[42] COCCN=c1scc(-c2cccs2)n1/N=C(\C)c1ccco1
 : -24, 46*, ., 2, 18, -3
[43] COCCN=c1scc(-c2ccc3c(c2)NC(=O)CO3)n1/N=C(\C)c1ccc(O)cc1
 : -7, 2, ., 0, 2, -2
[44] CCOC(=O)c1c(OCC)[nH]c2c1cc(O)c1ccccc12
 : -23, 33*, ., ., ., .
[45] CCOC(=O)c1c(C)[nH]c2cc(Br)c(O)cc12
 : -5, 0, ., ., ., .

Assay outcomes: PubChem, Broad Institute
